Patent US7671062B2, “Modulators of chemokine receptor activity, crystalline forms and process” (Bristol-Myers Squibb Company, priority 2006, dated 2010)

Legend:
human CCR2 [1] = biological target: T1, human CCR2 (Homo sapiens, UniProt P41597); assay: CCR2 chemotaxis, MCP-1-induced, THP-1 cells; type: cell-based; set-up: hPBMCs were isolated from human leukopak (Biological Specialty Inc.) using a standard protocol with Ficoll-Hypaque; endogenous in cells; host or cells: human peripheral blood mononuclear cells (hPBMCs); details: number in brackets = n
T1 sequence (P41597 1-360 isoform P41597-2): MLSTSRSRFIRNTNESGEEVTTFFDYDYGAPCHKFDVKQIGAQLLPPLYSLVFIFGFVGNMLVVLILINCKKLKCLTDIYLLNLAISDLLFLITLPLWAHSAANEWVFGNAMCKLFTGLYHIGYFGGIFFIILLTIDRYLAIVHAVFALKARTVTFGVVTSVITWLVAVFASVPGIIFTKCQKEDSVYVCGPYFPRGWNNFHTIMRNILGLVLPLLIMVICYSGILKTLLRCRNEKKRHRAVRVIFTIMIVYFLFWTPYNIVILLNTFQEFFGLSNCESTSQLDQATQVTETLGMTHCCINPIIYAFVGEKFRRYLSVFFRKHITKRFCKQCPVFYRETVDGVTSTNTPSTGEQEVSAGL
Method: The human CCR2 chemotaxis assay was conducted with the human monocytic cell line, THP-1. THP-1 cells were first labeled with the fluorescent dye Calcein-AM in phenol red-free, BSA-free RPMI-1640 (pH 7.4) at 37° C. for 30 minutes with gentle mixing every 15 minutes. The labeled cells were then washed and re-suspended at 1×10^5/ml in chemotaxis buffer (phenol red-free RPMI-1640, 0.1% BSA, pH 7.4). The test compound was diluted in chemotaxis buffer such that the final assay concentration ranged from 0.01 nM to 1 μM. The ligand MCP-1 (PeproTech Inc.) was diluted to 20 nM in chemotaxis buffer. To perform the assay, an equal volume of test compound dilutions was mixed with an equal volume of labeled THP-1 cells (Mixture 1), and an equal volume of test compound dilutions was mixed with an equal volume of diluted MCP-1 ligand (Mixture 2). Both mixtures were incubated independently at 37° C. for 10 minutes followed by gentle mixing. MCP-1-induced chemotaxis was then measured in a chemotaxis plate (Becton Dickinson) by placing 50 μl of Mixture 1 in the top chamber and 225 μl of Mixture 2 in the bottom chamber. The plate was covered with a lid and incubated at 37° C. for 30 minutes. 30 minutes later, the plate was read on a Cytofluor. […] The inhibition achieved by graded concentrations of test compound was calculated as a percentage of the compound-free MCP-1 control.

human CCR2 [2] = biological target: T1, human CCR2; assay: cell-based
human CCR2 [3] = biological target: T1, human CCR2; assay: Human peripheral blood mononuclear cell binding (CCR2 binding), 125I-human MCP-1 tracer; set-up: hPBMCs were isolated from human leukopak (Biological Specialty Inc.) using a standard protocol with Ficoll-Hypaque; endogenous in cells; host or cells: human peripheral blood mononuclear cells (hPBMCs); details: mean ± SD (n in parentheses)
Method: See also: Yoshimura et al., J. Immunol. 1990, 145, 292. The human CCR2 binding assay was established with human peripheral blood mononuclear cells (hPBMCs) using ^125I-human MCP-1 as the tracer ligand. hPBMCs were isolated from human leukopak (Biological Specialty Inc.) using a standard protocol with Ficoll-Hypaque (Mediatech Cellgro). Isolated hPBMCs were washed and diluted to 1×10^7/ml in binding buffer (RPMI-1640, 0.1% BSA, 20 mM Hepes, pH 7.4). ^125I-MCP-1 (NEN/Perk Elmer) was diluted to 0.45 nM in binding buffer. The compound was diluted in binding buffer at 3-fold the final concentrations used in the binding assay. The binding assay was performed using a 96-well filter plate (Millipore). Total ^125I-MCP-1 binding was assessed as follows: to each reaction of a total volume of 150 μl were added 5×10^5 cells, 0.15 nM ^125I-MCP-1, and compound such that the final concentration ranged from 0 to 100 nM. The plate was incubated at room temperature for 30 minutes followed by three washes with RPMI-1640, 0.1% BSA, 0.4 M NaCl, 20 mM Hepes, pH 7.4 using a vacuum manifold filtration (Millipore). […] The plate was sealed and counted on the Trilux for 1 minute. Non-specific binding was determined in the presence of 300 nM cold MCP-1 (PeproTech Inc.). Specific ^125I-MCP-1 was calculated as the difference between total and non-specific binding. […]

CCR2 = CCR2 (Homo sapiens, UniProt P41597); assay: Cold competition ligand binding to hCCR2 using 125I-human MCP-1
human CCR2 [4] = biological target: T1, human CCR2; assay: biochemical

## CC(=O)N[C@@H]1C[C@H](N(C)C(C)C)CC[C@@H]1N1CC[C@H](Nc2ncnc3ccc(C(F)(F)F)cc23)C1=O [Example 1, N-((1R,2S,5R)-5-(isopropyl(methyl)amino)-2-((S)-2-oxo-3-(6-(trifluoromethyl)quinazolin-4-ylamino)pyrrolidin-1-yl)cyclohexyl)acetamide]
Human CCR2 [1]
  IC50: 0.67 ± 0.42 nM
Human CCR2 [2]
  IC50: 0.6 ± 0.3 nM
Human CCR2 [3]
  IC50: 1.14 ± 0.69 nM
CCR2
  Ki: 1.2 nM
Human CCR2 [4]
  IC50: 2.2 ± 1.2 nM
